These results are taken from ChEMBL document CHEMBL1139520, “Dopamine D3 receptor partial agonists and antagonists as potential drug abuse therapeutic agents” (J Med Chem, 2005).

Sequences of proteins named here, by UniProt entry; tags and fusion partners are left off.
UniProt P14416, whole entry: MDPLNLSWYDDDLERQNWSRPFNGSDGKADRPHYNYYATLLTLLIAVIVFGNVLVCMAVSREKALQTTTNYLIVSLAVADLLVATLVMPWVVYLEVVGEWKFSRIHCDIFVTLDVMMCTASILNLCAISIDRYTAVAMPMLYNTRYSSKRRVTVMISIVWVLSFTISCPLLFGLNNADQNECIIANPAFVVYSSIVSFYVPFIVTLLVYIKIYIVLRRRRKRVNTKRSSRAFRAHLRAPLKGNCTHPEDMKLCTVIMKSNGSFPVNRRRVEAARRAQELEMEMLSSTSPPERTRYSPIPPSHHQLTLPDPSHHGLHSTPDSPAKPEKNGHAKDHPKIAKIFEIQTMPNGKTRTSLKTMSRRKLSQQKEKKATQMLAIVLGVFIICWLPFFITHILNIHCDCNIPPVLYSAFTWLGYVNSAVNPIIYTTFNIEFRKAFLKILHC

The target in this experiment is D(2) dopamine receptor (Homo sapiens, UniProt P14416). The experiment in a line: biochemical.

Compound `O=C(NCCCCN1CCN(c2cccc(Cl)c2Cl)CC1)c1ccc(I)cc1` had a Ki of 51.4 nM.
